From the OPERA property sets (Mansouri et al. 2018)

Details: experimental values compiled from the literature

| SMILES | solubility |
| --- | --- |
| CCOP(=O)(OC)OC | 3240 mM (≈ 500000 µg/mL) |
| CCNc1c([N+](=O)[O-])cc([N+](=O)[O-])cc1[N+](=O)[O-] | 0.39 mM (≈ 100 µg/mL) |
| O=C(O)CNc1c([N+](=O)[O-])cc([N+](=O)[O-])cc1[N+](=O)[O-] | 4.05 mM (≈ 1160 µg/mL) |
| COC(=O)CO[N+](=O)[O-] | 181 mM (≈ 24400 µg/mL) |
| CCN(c1c([N+](=O)[O-])cc([N+](=O)[O-])cc1[N+](=O)[O-])[N+](=O)[O-] | 0.199 mM (≈ 60 µg/mL) |
| CCCCOP(C)(=O)OCCCC | 38.4 mM (≈ 8000 µg/mL) |
| O=[N+]([O-])c1cc([N+](=O)[O-])c(O)cc1O | 0.39 mM (≈ 78.1 µg/mL) |
| CN(/C(N)=N/[N+](=O)[O-])[N+](=O)[O-] | 245 mM (≈ 40000 µg/mL) |
| O=[N+]([O-])C(Br)([N+](=O)[O-])[N+](=O)[O-] | 17 mM (≈ 3900 µg/mL) |
| CCCCOP(=O)(CC)OCCCC | 27 mM (≈ 6000 µg/mL) |
| O=C(O)C1(O)c2ccccc2-c2ccccc21 | 10.8 mM (≈ 2450 µg/mL) |
| CC(O)C([N+](=O)[O-])[N+](=O)[O-] (stereo unspecified) | 1200 mM (≈ 180000 µg/mL) |
| Nc1cc([N+](=O)[O-])c(O)c([N+](=O)[O-])c1 | 4.12 mM (≈ 820 µg/mL) |
| O=C(OCC([N+](=O)[O-])([N+](=O)[O-])[N+](=O)[O-])c1ccccc1C(=O)OCC([N+](=O)[O-])([N+](=O)[O-])[N+](=O)[O-] | 0.264 mM (≈ 130 µg/mL) |
| CCCCO[PH](=O)OCCCC | 37.6 mM (≈ 7300 µg/mL) |
| O=[N+]([O-])C(CCl)([N+](=O)[O-])[N+](=O)[O-] | 551 mM (≈ 110000 µg/mL) |

≈ marks a conversion by molar mass, not a printed value.
